Results: ChEMBL document CHEMBL5038675, “Selective A3 Adenosine Receptor Antagonist Radioligand for Human and Rodent Species” (ACS Med Chem Lett, 2022)

Amino acid sequences for entries named in this document (tags omitted).
UniProt P0DMS8, whole entry: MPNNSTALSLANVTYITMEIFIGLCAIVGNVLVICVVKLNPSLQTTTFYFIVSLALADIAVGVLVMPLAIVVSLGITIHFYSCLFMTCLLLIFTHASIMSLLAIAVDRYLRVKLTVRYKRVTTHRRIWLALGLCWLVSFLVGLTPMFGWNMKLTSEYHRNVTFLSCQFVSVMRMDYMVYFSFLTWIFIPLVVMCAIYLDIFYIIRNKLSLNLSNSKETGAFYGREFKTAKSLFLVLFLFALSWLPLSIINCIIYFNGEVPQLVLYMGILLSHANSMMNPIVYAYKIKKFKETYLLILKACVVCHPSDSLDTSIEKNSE

Biological target: Adenosine receptor A3 (Homo sapiens, UniProt P0DMS8)

Work on CNC(=O)[C@H]1O[C@@H](n2cnc3c(NCc4ccc(N)c(I)c4)ncnc32)[C@H](O)[C@@H]1O yielded a Ki of 1000 nM.
CCCn1cc2c(nc(NC(=O)Nc3ccc(OC)cc3)n3nc(-c4ccco4)nc23)n1 gave a Ki of 1130 nM.
